The target of test [1] is T1, D3 (Homo sapiens, UniProt P35462). The following applies: read-out: Ki (nM) D3; secondary binding assay.
Test [2] deals with T2, σ1 receptor (Rattus norvegicus, UniProt Q9R0C9).
T2 construct: crude membrane fractions prepared from rat brain homogenate for σ1 receptors; from tissue; host or cells: rat brain homogenate, crude membrane fraction
As to the kind of experiment: Secondary binding assay, Ki determination at σ1 receptor ([3H]pentazocine).

By UniProt entry, the sequences of proteins in these tests, tags left out.
UniProt P35462, whole entry: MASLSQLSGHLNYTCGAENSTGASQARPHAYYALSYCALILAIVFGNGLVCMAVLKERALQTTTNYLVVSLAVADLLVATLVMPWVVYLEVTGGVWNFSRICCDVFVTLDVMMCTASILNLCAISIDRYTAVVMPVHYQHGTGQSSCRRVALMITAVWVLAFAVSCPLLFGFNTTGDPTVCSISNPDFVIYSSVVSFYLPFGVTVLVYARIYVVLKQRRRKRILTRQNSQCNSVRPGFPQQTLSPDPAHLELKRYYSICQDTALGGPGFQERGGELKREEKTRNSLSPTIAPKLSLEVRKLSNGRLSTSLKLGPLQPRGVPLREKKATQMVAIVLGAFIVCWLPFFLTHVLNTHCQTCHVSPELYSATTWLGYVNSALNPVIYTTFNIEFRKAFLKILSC
UniProt Q9R0C9, whole entry: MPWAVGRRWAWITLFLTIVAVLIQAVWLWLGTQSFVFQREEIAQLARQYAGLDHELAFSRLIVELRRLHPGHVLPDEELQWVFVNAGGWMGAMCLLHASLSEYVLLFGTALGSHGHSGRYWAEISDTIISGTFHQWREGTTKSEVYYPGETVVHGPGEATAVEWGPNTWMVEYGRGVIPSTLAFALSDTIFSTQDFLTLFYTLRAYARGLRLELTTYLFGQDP
UniProt P08913, whole entry: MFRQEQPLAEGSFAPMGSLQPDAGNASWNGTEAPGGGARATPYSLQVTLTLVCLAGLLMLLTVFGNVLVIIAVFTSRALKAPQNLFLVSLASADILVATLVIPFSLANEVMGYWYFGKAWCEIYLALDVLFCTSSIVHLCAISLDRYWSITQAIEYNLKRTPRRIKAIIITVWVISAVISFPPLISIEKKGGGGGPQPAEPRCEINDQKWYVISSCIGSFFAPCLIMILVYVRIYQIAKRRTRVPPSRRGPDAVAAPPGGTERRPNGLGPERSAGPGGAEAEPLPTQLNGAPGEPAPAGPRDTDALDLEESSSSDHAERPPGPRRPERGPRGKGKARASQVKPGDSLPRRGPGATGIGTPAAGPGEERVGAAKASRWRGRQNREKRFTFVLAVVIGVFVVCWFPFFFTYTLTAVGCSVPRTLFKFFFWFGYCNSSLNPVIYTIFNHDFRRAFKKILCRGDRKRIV

Test [3] deals with T1, D3. As to the kind of experiment: Primary binding assay at non-sigma receptors: D3. On the set-up: expressed in transfected cells. The following applies: read-out: % Inhibition D3. On the procedure:
(§1) Initial primary binding screening assays were performed using a 50 μM (initial)−10 μM (final) assay concentration of reference and test compounds.

The test system of test [4] is non-sigma receptors. As to the kind of experiment: Binding screen against panel of non-sigma receptors (overall statement). The procedure: as §1
Test [5] deals with T3, Alpha2A (Homo sapiens, UniProt P08913).
T3 construct: expressed in transfected cells
Briefly: Primary binding assay at non-sigma receptors: Alpha2A. The following applies: read-out: % Inhibition Alpha2A. On the procedure:
as §1

Test [6] has as its target T3, Alpha2A. As to the kind of experiment: Secondary binding assay, Ki determination: Alpha2A.

This is an account of results in patent US9532983B2, “Benzofuran compounds, compositions, kits and/or methods thereof” (Savannah State University, priority 2013, dated 2017).

pKi: −log10 of the molar value.

The term Ki denotes the equilibrium dissociation constant of an inhibitor or competing ligand from its target. Usually pKi stands for the Ki on a negative log10 scale, so that one unit is a factor of ten. The term inhibition denotes the percentage by which the read-out fell short of the control. As for `Cc1c(C(=O)N(CCCN2CCCCC2)c2ccccc2)oc2ccccc12` [KSCM-5, 3-Methyl-N-phenyl-N-(3-(piperidin-1-yl)propyl)benzofuran-2-carboxamide], in test [1], the inhibition constant (Ki) came out at 6740 nM. The pKi in test [2] ([3H]pentazocine, rat brain homogenate, read-out: σ-1 (Ki)) is 8.11. Also, in test [3], the inhibition at 10 µM amounted to 60.6%. Moreover, in test [4], the “selectivity for sigma receptors (σ1 and σ2) over non-sigma receptors (in words)” value was “have the desired selectivity for sigma receptors”.

In the case of `COc1cc2oc(C(=O)N(CCCN3CCCCC3)c3ccccc3)c(C)c2cc1OC` [KSCM-1, 5,6-Dimethoxy-3-methyl-N-phenyl-N-(3-(piperidin-1-yl)propyl)benzofuran-2-carboxamide], the “σ-2/σ-1 (selectivity for σ1 over σ2)” value in test [2] (ratio of Ki values) is reported as 19. Moreover, in test [5], the inhibition at 10 µM was 55.2%. In test [6], this compound registered a Ki of 945 nM. For the same compound, in test [4], the “affinity at non-sigma receptors selected for secondary binding assay (in words)” value is recorded as “no significant affinity”; the “selectivity for sigma receptors (σ1 and σ2) over non-sigma receptors (in words)” value is on record as “have the desired selectivity for sigma receptors”.
